Test results as given in patent US20080214572A1, “Selected Tetracyclic Tetrahydrofuran Derivatives Containing a Cyclic Amine Side Chain” (priority 2005, published 2008).

The chains behind the UniProt entries cited, without tags or fusion partners. Where a name states a change or a piece, a line headed by the entry shows the natural chain unless it says otherwise. Residues count along the entry.
UniProt P28335, 33-458 limits assumed: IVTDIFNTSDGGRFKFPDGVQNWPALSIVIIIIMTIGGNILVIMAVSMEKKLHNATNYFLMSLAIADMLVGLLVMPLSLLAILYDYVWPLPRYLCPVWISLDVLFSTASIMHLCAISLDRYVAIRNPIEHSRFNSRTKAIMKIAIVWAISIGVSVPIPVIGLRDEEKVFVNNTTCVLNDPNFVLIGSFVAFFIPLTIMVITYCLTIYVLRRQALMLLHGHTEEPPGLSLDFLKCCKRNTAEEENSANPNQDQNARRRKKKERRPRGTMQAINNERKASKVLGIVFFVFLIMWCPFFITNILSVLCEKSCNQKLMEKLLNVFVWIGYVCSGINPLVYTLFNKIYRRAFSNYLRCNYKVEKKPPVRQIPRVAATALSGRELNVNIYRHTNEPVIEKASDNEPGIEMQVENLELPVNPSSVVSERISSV
UniProt P28223, whole entry: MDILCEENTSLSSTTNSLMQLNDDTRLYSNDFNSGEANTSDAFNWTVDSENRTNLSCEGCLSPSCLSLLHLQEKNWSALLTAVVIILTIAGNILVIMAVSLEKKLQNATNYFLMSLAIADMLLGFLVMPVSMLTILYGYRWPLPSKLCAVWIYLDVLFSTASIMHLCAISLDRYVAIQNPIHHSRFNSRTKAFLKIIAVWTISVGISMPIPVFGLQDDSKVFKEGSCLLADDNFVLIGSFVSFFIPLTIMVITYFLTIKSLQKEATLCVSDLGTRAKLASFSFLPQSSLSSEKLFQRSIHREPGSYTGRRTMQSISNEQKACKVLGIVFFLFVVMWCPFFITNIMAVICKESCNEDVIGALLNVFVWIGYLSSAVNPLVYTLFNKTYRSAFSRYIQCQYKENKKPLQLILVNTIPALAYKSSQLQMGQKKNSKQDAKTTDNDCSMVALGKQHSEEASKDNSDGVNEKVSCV
UniProt P14416, whole entry: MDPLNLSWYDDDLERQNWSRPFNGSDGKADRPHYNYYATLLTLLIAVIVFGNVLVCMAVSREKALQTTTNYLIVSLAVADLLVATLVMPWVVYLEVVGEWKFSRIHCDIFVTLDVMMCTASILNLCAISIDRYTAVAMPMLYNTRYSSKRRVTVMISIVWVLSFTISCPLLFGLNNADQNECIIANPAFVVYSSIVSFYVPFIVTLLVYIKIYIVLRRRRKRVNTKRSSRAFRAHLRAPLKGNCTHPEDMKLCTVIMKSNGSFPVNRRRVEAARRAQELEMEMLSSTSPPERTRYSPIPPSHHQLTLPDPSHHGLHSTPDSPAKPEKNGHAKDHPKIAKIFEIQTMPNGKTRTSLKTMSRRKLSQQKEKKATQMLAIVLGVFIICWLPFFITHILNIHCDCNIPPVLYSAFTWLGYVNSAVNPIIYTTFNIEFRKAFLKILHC

Columns and labels:
[1] = target: human cloned 5-HT2C receptor, expressed in CHO cells (Homo sapiens, UniProt P28335); assay: In vitro radioligand binding affinity for 5-HT2C receptor ([3H]mesulergine)
Description: (§1) The interaction of the compounds of Formula (I) with 5-HT2A and 5-HT2C receptors was assessed in in vitro radioligand binding experiments. In general, a low concentration of a radioligand with a high binding affinity for the receptor is incubated with a sample of a tissue preparation enriched in a particular receptor (1 to 5 mg tissue) in a buffered medium (0.2 to 5 ml). During the incubation, the radioligands bind to the receptor. When equilibrium of binding is reached, the receptor bound radioactivity is separated from the non-bound radioactivity, and the receptor bound activity is counted. The interaction of the test compounds with the receptors is assessed in competition binding experiments. Various concentrations of the test compound are added to the incubation mixture containing the tissue preparation and the radioligand. Binding of the radioligand will be inhibited by the test compound in proportion to its binding affinity and its concentration. The affinities of the compounds for the 5-HT2 receptors were measured by means of radioligand binding studies conducted with: (a) human cloned 5-HT2A receptor, expressed in L929 cells using [^125I]R91150 as radioligand and (b) human cloned 5-HT2C receptor, expressed in CHO cells using [^3H]mesulergine as radioligand.
(§2) The results are given in Table 3 below in terms of pIC50 values for the respective compounds.

[2] = target: human cloned 5-HT2A receptor, expressed in L929 cells (Homo sapiens, UniProt P28223); assay: In vitro radioligand binding affinity for 5-HT2A receptor ([125I]R91150)
Description: as §1, §2

[3] = target: human Dopamine D2L receptor (Homo sapiens, UniProt P14416); assay: In vitro binding affinity for human D2L receptor ([3H]Spiperone); conditions: human D2L-transfected CHO cell membranes
Description: Frozen membranes of human Dopamine D2L receptor-transfected CHO cells were thawed, briefly homogenized using an Ultra-Turrax T25 homogenizer and diluted in Tris-HCl assay buffer containing NaCl, CaCl2, MgCl2, KCl ([…] respectively, adjusted to pH 7.7 with HCl) to an appropriate protein concentration optimized for specific and non-specific binding. Radioligand [^3H]Spiperone (NEN, specific activity ˜70 Ci/mmol) was diluted in assay buffer at a concentration of 2 nmol/L. Prepared radioligand (50 μl), along with 50 μl of either the 10% DMSO control, Butaclamol (10^−6 mol/l final concentration), or compound of interest, was then incubated (30 min, 37° C.) with 400 μl of the prepared membrane solution. Membrane-bound activity was filtered through a Packard Filtermate harvester onto GF/B Unifilter plates and washed with ice-cold Tris-HCl buffer (50 mM; pH 7.7; 6×0.5 ml). Filters were allowed to dry before adding scintillation fluid and counting in a Topcount scintillation counter. Percentage specific bound and competition binding curves were calculated using S-Plus software (Insightful).
as §2
The values in the Table are pIC50 values and were determined in accordance with the procedure given above for determining D2 affinity.

[4] = tested form: dioxalate (.2 C2H2O4)
[5] = tested form: ethanedioate (oxalate) 1:1, racemate, re
[6] = tested form: oxalate (C2H2O4), racemate

## OCCN1CCN(C[C@@H]2C[C@@H]3c4ccccc4Sc4ccc(F)cc4[C@H]3O2)CC1 (relative stereo)
[1]; tested form: oxalate (1:2)
  5-HT2C pIC50: 7.56
[2]; tested form: oxalate (1:2)
  5-HT2A pIC50: 8.67
[3]; tested form: oxalate (1:2)
  D2L pIC50: 8.11

## Fc1ccc2c(c1)[C@H]1O[C@@H](CN3CCNCC3)C[C@@H]1c1ccccc1C2
[1]; [4]
  5-HT2C pIC50: 7.45
[2]; [4]
  5-HT2A pIC50: 7.57
[3]; [4]
  D2L pIC50: 6.97

## Oc1ccc(CN2CCN(C[C@H]3C[C@@H]4c5ccccc5Cc5ccc(F)cc5[C@H]4O3)CC2)cc1
[1]; tested form: TFA salt
  5-HT2C pIC50: 7.52
[2]; tested form: TFA salt
  5-HT2A pIC50: 7.97
[3]; tested form: TFA salt
  D2L pIC50: 8.56

## Clc1ccc2c(c1)C1OC(CN3CCCC3)CC1c1ccccc1O2 (stereo not drawn)
[1]; [5]
  5-HT2C pIC50: 7.63
[2]; [5]
  5-HT2A pIC50: 7.55
[3]; [5]
  D2L pIC50: 7.34

## CC(C)(O)CN1CCN(C[C@H]2C[C@@H]3c4ccccc4Cc4ccc(F)cc4[C@H]3O2)CC1
[1]; tested form: oxalate (1:2)
  5-HT2C pIC50: 7.43
[2]; tested form: oxalate (1:2)
  5-HT2A pIC50: 8.01
[3]; tested form: oxalate (1:2)
  D2L pIC50: 7.86

## OCCN1CCN(CC2CC3c4ccccc4Oc4ccc(Br)cc4C3O2)CC1 (stereo not drawn)
[1]; [6]
  5-HT2C pIC50: 6.40
[2]; [6]
  5-HT2A pIC50: 7.36
[3]; [6]
  D2L pIC50: 7.74
